Experimental data taken from paper PMC11952830.

How the values were obtained:
[1] = molecular target: isolated Cdc42EP3 CRIB/BH1 domains (isolated N-terminus of Cdc42EP3), TMR labeled at the N-terminus (human); assay: fluorescence polarisation; fluorescence anisotropy; 20 nM TMR-labeled Cdc42EP3 or variant fixed, actin filaments (polymerized in 1x KMEI) titrated; 1 mg/ml BSA; single-site fit
[2] = molecular target: Cdc42EP3 (1-21), TMR labeled at the N-terminus (human) (UniProt Q9UKI2); assay: fluorescence polarisation; fluorescence anisotropy; 5 nM TMR-labeled Cdc42EP3 residues 1 to 21 fixed, actin filaments titrated; 22 ul in a low volume 384-well plate

Substance: actin (rabbit muscle) (from UniProt P68135 1-377) (natural protein)
- fold reduced affinity compared to full-length Cdc42EP3 [1]: 2 fold
- fold weakened affinity compared to the isolated N-terminus of Cdc42EP3 [2]: 3 to 4 fold
